The series concerns GMK cells. The series can be described thus: Cytotoxicity observed microscopically in GMK cells (Test Example 1). In kind it is cell-based, green monkey. Particulars: 10 µg/ml, in parentheses. As for the experimental part:
Confluent GMK cells (derived from green monkey kidney) in 96-well plates were infected with HSV-1 (Miyama strain) in the presence of various concentrations of test compounds. […] The virus titer (TCID₅₀) was determined from CPE of virus infected culture. Antivirus effects of test compounds were calculated from TCID₅₀ values of test compound treated and control cultures and represented by ΔTCID₅₀(log₁₀). Test compounds were dissolved in MEM medium, ethanol or DMSO to 10 mg/ml, and diluted with MEM medium supplemented with 1% fetal bovineserum.
In Table 1, parentheses indicate the cytotoxicity of these compounds. (-) and (±) indicate no cytotoxicity and slight cytotoxicity, respectively.

Take “L-Glutamic acid α-[4-(2-chlorophenyl)-1-piperazine]amide hydrochloride [Compound of Example 14]”: the cytotoxicity result is reported as “-”.

The values above are taken from patent publication EP0548798A1, “Antiviral agent” (SANWA KAGAKU KENKYUSHO CO., LTD., priority 1991, dated 1993).
